Source: US5759573A, “Cyclodextrin liposomes encapsulating pharmacologic compounds and methods for their use” (DepoTech Corporation, priority 1995, dated 1998)

Assay: in vivo
Settings: mouse, plasma, ip, 10 mg/kg

CN(Cc1cnc2nc(N)nc(N)c2n1)c1ccc(C(=O)N[C@@H](CCC(=O)O)C(=O)O)cc1 [unencapsulated methotrexate, methotrexate] gave a Cmax of 3.3 ± 0.03 µM.
